uPA generation – blocks generation of uPA at the cell surface. cell surface uPA generation assay, qHTS. Potency, µM (top dose mostly 38.3 µM), for inactives: top-dose activity change, negative = inhibition, usual class: inhibitors. 330,000 tested, 0.31% active; active means well fitted inhibition curve with a large enough effect; inconclusive means small, poorly fitted or top-dose-only effect; inactive means no such curve, though single readings can be large or run the other way; tested in mouse RAW 264.7 cells; further: potency means the concentration at half of the fitted maximal effect; on the % scale 0 is the no-effect control and ±100 the full control effect; nearly all actives have a fitted effect of over 55% in size
miR-21 FLuc – miR-21 reporter, rising signal | 340,000 tested, under 10 active | AID 2288 | HeLa miR-21 FLuc reporter, luciferase, 48 h | Potency, µM (titrated, usually from 38.3 µM), for inactives: at the highest dose reporter change, positive = more light; active = well fitted rising curve with a large enough effect; inconclusive = small, poorly fitted or top-dose-only effect; inactive = no such curve, though single readings can be large or run the other way;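 further: % of control where 0% means no effect; miR-21 action dims this reporter so a rising signal means less miR-21 action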
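Using DMEM plus 10% FBS, HeLa miR-21-FLuc cells are incubated with test compounds (final up to about 40uM) for 48 hours; firefly luciferase signal is then imaged following reagent-mediated lysis.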
TDP1 block – TDP1 (human) enzyme inhibition; recombinant TDP1, AlphaScreen DNA substrate cleavage; 350,000 tested, 0.28% active; Potency, µM (titrated, usually from 130 µM), without a hit: at the highest dose activity change, negative = inhibition, most hits filed as inhibitors; further: potency means the concentration at half of the fitted maximal effect; on the % scale 0 is the no-effect control and ±100 the full control effect; nearly all actives have a fitted effect of over 40% in size
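Signal: AlphaScreen proximity between streptavidin donor and anti-FITC acceptor beads on intact substrate. Reaction: Tdp1 1 nM, substrate 15 nM final, 5 min RT after 15 min compound preincubation.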
TDP1 cell CPT – growth inhibition of DT40 Tdp1-/-;hTDP1 cells with camptothecin (screen for TDP1 inhibitors) | chicken DT40 Tdp1-/-;hTDP1 cells + 20 nM CPT, ATP luminescence, 48 h | Potency, µM (top dose mostly 46.2 µM), without a hit: at the top dose activity change, negative = growth inhibition, hits mostly inhibitors | 420,000 tested, 12% active | AID 686979; further: potency means the concentration at half of the fitted maximal effect; on the % scale 0 is the no-effect control and ±100 the full control effect; nearly all actives have a fitted effect of over 55% in size
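Chicken DT40 Tdp1-/- cells complemented with human TDP1, 400 cells/well, exposed to compounds plus 20 nM camptothecin for at least 48 h at 37 C; viability read as ATP content by CellTiter-Glo luminescence.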
TDP1 cell noCPT – qHTS for Inhibitors of human tyrosyl-DNA phosphodiesterase 1 (TDP1): qHTS in cells in absence of CPT | DT40 Tdp1-/- hTDP1 cells, no CPT, ATP luminescence, 48 h | Potency, µM (series often up to 46.2 µM), inactives show at the highest dose activity change, negative = growth inhibition, hits mostly inhibitors | 420,000 tested, 15% active | AID 686978, 2013; further: potency means the concentration at half of the fitted maximal effect; on the % scale 0 is the no-effect control and ±100 the full control effect; nearly all actives have a fitted effect of over 55% in size
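DT40 Tdp1-/-;hTDP1 cells, no CPT (DMSO vehicle only), 400 cells/well; compounds pin-transferred; ≥48 hr, 37 °C; CellTiter-Glo 30 min RT dark, luminescence read.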
Starred values were filed as active, the others as inactive; ? = inconclusive; . = no result; [ ] = another dose, or the depositor's remark. Rows were chosen to be rich in hits. Some 16% of all compounds tested hit in one or more screens of this group. Unless noted, the call rests on the fitted dose curve; in most records, active means well fitted curve in the direction sought with a large enough effect; inconclusive means small, poorly fitted or top-dose-only effect, or another doubt; inactive means no such curve, though single readings can be large; an effect the other way counts as inactive or inconclusive.

Below each compound – uPA generation | miR-21 FLuc | TDP1 block | TDP1 cell CPT | TDP1 cell noCPT
(1) O=c1[nH]c(CSc2ncnc3sc(-c4ccccc4)cc23)nc2ccccc12
 : 0.0% | -1.4% | 5.7% | 16.4µM* | 13µM*
(2) CC(C)N(C(=O)CSc1ncnc2sc(-c3ccccc3)cc12)C(C)C
 : 7.1% | -1.3% | -1.0% | ? | 14.6µM*
(3) COC(=O)c1c(C)[nH]c(C(=O)CSc2ncnc3sc(-c4ccccc4)cc23)c1C
 : 5.9% | 3.1% | 5.3% | 18.4µM* | 16.4µM*
(4) CC(C)c1nc(NCCN2CCOCC2)c(C#N)c2c1COC(C)(C)C2
 : 2.3% | -8.9% | 4.2% | ? | ?
(5) CC(Oc1ccc(F)cc1)c1nnc(SCC(=O)N(c2ccccc2)C2CCS(=O)(=O)C2)o1 (stereo not drawn)
 : -7.1% | . | -9.8% | ? | -83.7%
(6) CCOC(=O)Nc1nc(-c2ccccc2)c(C(=O)c2ccccc2)s1
 : -15.3% | 24.6% | 0.0% | 0.581µM* | 0.651µM*
(7) COC(=O)Nc1nc(-c2ccccc2)c(C(=O)c2ccc(Cl)cc2)s1
 : -9.9% | 20.3% | 3.6% | 0.581µM* | 0.651µM*
(8) NC(=O)c1ccc(NC(=O)COC(=O)/C=C/c2ccc(Br)o2)cc1
 : 4.9% | . | 5.62µM* | -18.8% | -6.6%
(9) O=C(O)c1ccc(N/N=C/c2cc3ccccc3nc2Cl)cc1
 : ? | -80.7% | . | -15.6% | ?
(10) Clc1nc2ccccc2cc1/C=N/Nc1nc2ccccc2[nH]1
 : -10.6% | -49.5% | 4.6% | ? | 14.6µM*
(11) O=[N+]([O-])c1ccccc1N/N=C/c1cc2ccccc2nc1Cl
 : 10.0% | -48.3% | -4.7% | 4.11µM* | ?
(12) Cc1ccc2cc(COC(=O)c3cccc([N+](=O)[O-])c3)c(=O)[nH]c2c1
 : 11.3% | -4.0% | 5.6% | -3.5% | 0.4%
(13) CNc1ccnc(-c2ccccc2OC)n1
 : . | . | . | -24.1% | -8.3%
(14) CC(C)c1ccc(NC(=O)CCNS(=O)(=O)c2cc(Br)cnc2N)cc1
 : -1.4% | 14.7% | 3.2% | 16.4µM* | ?
(15) COc1cc(C(=O)N=c2sc3ccccc3n2C)cc(OC)c1OC
 : 9.5% | -23.6% | -7.7% | 7.31µM* | 8.2µM*
(16) COc1cc(C(=O)N=c2sc3c(C)ccc(OC)c3n2C)cc(OC)c1OC
 : -13.2% | -7.0% | . | 14.6µM* | 5.17µM*
(17) COc1ccc(C(=O)N=c2sc3c(C)ccc(OC)c3n2C)cc1
 : ? | -62.2% | 3.3% | 3.26µM* | 4.11µM*
(18) Cn1c(=NC(=O)c2ccco2)sc2ccccc21
 : -23.9% | -21.9% | 4.8% | -28.4% | ?
(19) CCOc1ccc(CN2CCNC(=O)C2CC(=O)NCC2CCOCC2)cc1 (stereo not drawn)
 : 3.1% | 3.4% | 3.2% | 2.0% | -3.3%
(20) O=C(CCn1nnc2ccccc21)Nc1nnc(Cc2ccccc2)s1
 : 3.2% | -2.6% | 3.2% | ? | ?
(21) Cc1ccc(-c2noc(CNC(=O)c3ccc(Br)o3)n2)cc1
 : . | -2.7% | 6.1% | ? | ?
(22) Cc1ccc(S(C)(=O)=NC(=O)NC(=O)c2c(Cl)cccc2Cl)cc1 (stereo not drawn)
 : 7.7% | -1.6% | 2.6% | -1.3% | -5.7%
(23) Cc1[nH]c(=O)c(C(=O)/C=C/c2ccccc2F)c2c1CCCC2
 : . | ? | 2.0% | 4.61µM* | 3.26µM*
(24) C/C(=C\c1ccccc1F)C(=O)c1c(C)cc(C)[nH]c1=O
 : -1.0% | -1.1% | . | -23.8% | -17.4%
(25) OC(CNC1CCCCC1)CON=C1CCSc2c(Cl)cccc21 (stereo not drawn)
 : . | . | . | 23.1µM* | 8.2µM*
(26) O=C(Nc1nnc(S(=O)(=O)N2CCCCCC2)s1)c1ccc(Cl)cc1
 : 6.8% | -3.8% | 3.7% | 1.1% | -0.1%
(27) CCOc1ccc(C(=O)CN2CCN(S(=O)(=O)c3ccc(OC)cc3)CC2)cc1
 : -9.5% | -2.6% | 1.1% | 18.4µM* | ?
(28) O=C(CCCOc1ccc(Br)cc1)Nc1ccc(S(=O)(=O)N2CCOCC2)cc1
 : 0.4% | . | . | ? | 16.4µM*
(29) O=C(COc1ccc(F)c(Cl)c1)Nc1ccc(N2CCOCC2)cc1
 : 1.1% | . | 3.5% | 16.4µM* | ?
(30) CNC(=O)COc1ccc(S(=O)(=O)N2CCCC2)cc1
 : 5.6% | 1.6% | 2.2% | 29.1µM* | ?
(31) O=C(COc1ccc(S(=O)(=O)N2CCOCC2)cc1)Nc1ccc(Br)cc1
 : -21.0% | . | 0.3% | ? | ?
(32) CCOc1ccccc1N1CC(C(=O)Nc2ccc(C(=O)O)cc2)CC1=O (stereo not drawn)
 : 1.8% | -2.4% | -14.4% | -8.0% | 7.9%
(33) CCOc1ccc(CN2CCN(S(=O)(=O)c3ccc(NC(C)=O)cc3)CC2)cc1
 : -1.2% | 16.6% | 5.8% | ? | 14.6µM*
(34) O=C(OCCOc1ccc(F)cc1)c1ccc(S(=O)(=O)N2CCCC2)cc1
 : -9.3% | . | -10.4%[56.1 µM] | -9.0% | 2.31µM*
(35) CCOc1ccc(NC(=O)COc2ccc(S(=O)(=O)N3CCOCC3)cc2)cc1
 : -11.7% | . | 1.2% | 3.26µM* | ?
(36) COc1ccc(CNC(=O)COc2ccc(S(=O)(=O)N3CCOCC3)cc2)cc1
 : 8.5% | . | . | ? | ?
(37) O=C(COc1ccc(S(=O)(=O)N2CCOCC2)cc1)NCCc1ccc(Cl)cc1
 : . | . | . | ? | 18.4µM*
(38) Cc1ccc(Oc2ncc(CN3CCOCC3)s2)cc1
 : -5.4% | -39.1% | 0.0% | 0.3% | 6.1%
(39) Fc1ccc(Oc2ccc3nnc(C(F)(F)F)n3n2)cc1
 : -1.3% | -10.0% | 2.9% | -24.3% | -6.5%
(40) O=C(/C=C/c1ccc(S(=O)(=O)N2CCOCC2)cc1)NCc1ccc(Cl)cc1
 : -14.2% | 0.5% | 4.2% | ? | 18.4µM*
(41) CCOc1ccc(CONS(=O)(=O)c2ccc(NC(C)=O)cc2)cc1Cl
 : 1.0% | 1.1% | 7.7% | ? | 9.2µM*
(42) Cc1ccc2c(Cl)cc(Cl)c(OCC(=O)NCCc3ccccn3)c2n1
 : 11.6% | -5.9% | 0.0% | ? | ?
(43) Cc1ccc(NC(=O)C(=O)NCc2ccccn2)cc1
 : 2.4% | -46.5% | 3.7% | 14.7% | 5.6%
(44) CCOc1ccc(C2Nc3ccccc3-c3nnc(SCc4ccccc4)nc3O2)cc1OC (stereo not drawn)
 : . | -15.1% | . | 18.4µM* | ?
(45) Cc1ccc(NC(=O)c2ccccc2O)cc1
 : -6.2% | -8.5% | 2.4% | ? | ?
(46) Cc1cc(C)cc(NC(=O)Nc2ccc(NC(=O)c3ccccc3O)cc2)c1
 : 3.3% | 0.4% | . | ? | 20.6µM*
(47) O=S(=O)(c1cccc(Cl)c1)c1nnn2c1nc(NCc1ccc3c(c1)OCO3)c1sccc12
 : . | -9.1% | 5.1% | ? | 23.1µM*
(48) O=S(=O)(c1cccc(Cl)c1)c1nnn2c1nc(NC1CCCC1)c1sccc12
 : . | -22.4% | -12.8% | ? | ?
(49) CCN(CC)c1nc2c(S(=O)(=O)c3cccc(Cl)c3)nnn2c2ccsc12
 : . | 12.4% | -2.6% | 8.2µM* | 20.6µM*
(50) CC1CCN(c2nc3c(S(=O)(=O)c4cccc(Cl)c4)nnn3c3ccsc23)CC1
 : . | -1.2% | 2.6% | ? | 23.1µM*

A portion from the list above:
Below each compound – uPA generation | miR-21 FLuc | TDP1 block | TDP1 cell CPT | TDP1 cell noCPT
(45) Cc1ccc(NC(=O)c2ccccc2O)cc1
 : -6.2% | -8.5% | 2.4% | ? | ?
(46) Cc1cc(C)cc(NC(=O)Nc2ccc(NC(=O)c3ccccc3O)cc2)c1
 : 3.3% | 0.4% | . | ? | 20.6µM*
(47) O=S(=O)(c1cccc(Cl)c1)c1nnn2c1nc(NCc1ccc3c(c1)OCO3)c1sccc12
 : . | -9.1% | 5.1% | ? | 23.1µM*
(48) O=S(=O)(c1cccc(Cl)c1)c1nnn2c1nc(NC1CCCC1)c1sccc12
 : . | -22.4% | -12.8% | ? | ?
(49) CCN(CC)c1nc2c(S(=O)(=O)c3cccc(Cl)c3)nnn2c2ccsc12
 : . | 12.4% | -2.6% | 8.2µM* | 20.6µM*
(50) CC1CCN(c2nc3c(S(=O)(=O)c4cccc(Cl)c4)nnn3c3ccsc23)CC1
 : . | -1.2% | 2.6% | ? | 23.1µM*
